Here are results for 75 compounds from PubChem BioAssay AID759 (NMMLSC, 2007).

The list shows a part of the results, in another mix than the full data. Activity calls are given as the source filed them.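 How the source made its calls: active means GTP binding activity at least 20% away from the 100% baseline, either lowered as inhibitor or raised as activator; inconclusive means flagged as likely green fluorescent, judged across all proteins in the well; inactive means the rest.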

The experiment addresses GTPase HRas (Homo sapiens) (UniProt P01112). Put plainly: HRas wt fluorescent GTP binding changes, either direction – biochemical, wildtype, bead-based flow cytometry, multiplex, primary screen (AID 759).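 Further: 0% = unlabeled GTP competition control and 100% = no-compound control.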 The following applies: GST-Ras wt beads, Bodipy-FL-GTP binding, at 10 µM, actives lie on both sides. Background: In flow cytometry, cells or beads pass a laser one at a time.
For the compound `CC(=O)NC(SC(=S)N(C)C)C(Cl)(Cl)Cl` (stereo not given), the GTP binding activity is inactive: 102%. As to `O=C(OC1CN2CCC1CC2)c1cccc(Cl)c1` (stereo not given), the GTP binding activity was inactive: 103%. In the case of `C(Cc1nn[nH]n1)Cc1nn[nH]n1` it was inactive: 104%. `O=P(Nc1ccccn1)(c1ccc(Br)cc1)c1ccc(Br)cc1`: the GTP binding activity is inactive: 96%. Take `O=P(Nc1nccs1)(c1ccccc1)c1ccccc1`: the GTP binding activity was inactive: 103%. In the case of `CC(C)C(=O)NC(Sc1ccccc1)C(Cl)(Cl)Cl` (stereo not given), the GTP binding activity is inactive: 100%. With `c1nnnn1CCn1cnnn1` the figure was inactive: 104%; with `CC(=O)Nc1ccc(Oc2c([N+](=O)[O-])cc([N+](=O)[O-])cc2[N+](=O)[O-])cc1`, inactive: 89%. Take `CCOc1ccc(C2=NCC(CBr)S2)cc1` (stereo not given): the GTP binding activity was inactive: 94%.

In the case of `O=P1(Nc2nc3ccc(Cl)cc3s2)COc2ccccc2O1` (stereo not given), the GTP binding activity is inactive: 95%. With `CC(C)(C)C(=O)NC(Sc1ccccc1)C(Cl)(Cl)Cl` (stereo not given) the figure was inactive: 94%; with `CCC(=O)N1C2C3N(C(=O)CC)C1C1N(C(=O)CC)C(C(N1C(=O)CC)N3C(=O)CC)N2C(=O)CC`, inactive: 99%; with `Cc1ccc(OP(=O)(Nc2ccccn2)Oc2ccc(C)cc2)cc1`, inactive: 92%. With `CC(=O)NC(SC(=S)N(CC(C)C)CC(C)C)C(Cl)(Cl)Cl` (stereo not given), the GTP binding activity was inactive: 97%. In the case of `COC(=O)c1cc2c(s1)N=C(c1ccccc1)N(C)P2(=O)N1CCOCC1` (stereo not given), the GTP binding activity is inactive: 96%. Consider `O=c1c2cc([N+](=O)[O-])ccc2[nH]c2c([N+](=O)[O-])cc([N+](=O)[O-])cc12`, for which the GTP binding activity was inactive: 94%. As to `CCOC(=O)NC(Sc1ccccc1)C(Cl)(Cl)Cl` (stereo not given), the GTP binding activity is inactive: 97%. `c1ccc(-c2nn[nH]n2)c(-c2nn[nH]n2)c1`: the GTP binding activity is inactive: 95%.

In the case of `O=C(NC1CCS(=O)(=O)C1)NP(=S)(Oc1ccccc1)Oc1ccccc1` (stereo not given), the GTP binding activity was inactive: 96%. For the compound `CCNC(=S)/N=C(\N)N[N+](=O)[O-]`, the GTP binding activity is inactive: 98%.

For `CCN(N=Nc1nonc1N)c1nonc1N`, the GTP binding activity is inactive: 102%. In the case of `Cc1cc(SC(NC(=O)c2ccc(F)cc2)C(Cl)(Cl)Cl)ncn1` (stereo not given), the GTP binding activity was inactive: 99%. With `CCOP(=O)(Nc1ccccc1)OCC`, the GTP binding activity was inactive: 105%. As to `O=C(NC(Sc1ccncn1)C(Cl)(Cl)Cl)c1ccccc1` (stereo not given), the GTP binding activity was inactive: 100%.

Take `Cc1c2non([O-])c-2c(C)[n+](=O)[n+]1[O-]`: the GTP binding activity was inactive: 96%. Turning to `Oc1ccccc1CNc1ccccn1`, the GTP binding activity is inactive: 102%. In the case of `CC(C)CC(=O)NC(Sc1ccc(Cl)cc1)C(Cl)(Cl)Cl` (stereo not given) it was inactive: 102%; in that of `Cc1ccc(N/C(=N/P(=O)(N2CCOCC2)N2CCOCC2)N2CCOCC2)cc1`, inactive: 97%.

With `NC(=O)c1cc([N+](=O)[O-])cc([N+](=O)[O-])c1N`, the GTP binding activity was inactive: 98%. Regarding `CN1CCCC(OC(=O)C(c2ccccc2)c2ccccc2)C1` (stereo not given), the GTP binding activity is inactive: 100%. As for `Clc1ccc(Cl)c(NC2=NCC(CBr)S2)c1` (stereo not given), the GTP binding activity is inactive: 97%.

Turning to `CCN(/C(=N/P(=O)(N1CCOCC1)N1CCOCC1)N1CCOCC1)c1ccc(OC)cc1`, the GTP binding activity is inactive: 102%. In the case of `CC1CCN(C(=O)Oc2c(Cl)cc(Cl)c3cccnc23)CC1` it was inactive: 100%; in that of `CN(C)C(=O)OCCc1n(C)cc[n+]1C`, inactive: 102%; in that of `COc1ccc(C2=NCC(CBr)S2)cc1` (stereo not given), inactive: 98%.

As to `O=[N+]([O-])c1cc([N+](=O)[O-])c(CCNc2ccccc2)c([N+](=O)[O-])c1`, the GTP binding activity is inactive: 100%.

Turning to `CCc1nc2c(n1)c1c(non1O)c1c2no[n+]1[O-]`, the GTP binding activity is inactive: 96%.

Turning to `Cc1ccc(NP(=O)(Oc2ccccc2)Oc2ccccc2)nc1`, the GTP binding activity is inactive: 100%. With `CC(=O)N1C2C3N(C(C)=O)C1C1N(C(C)=O)C(C(N1C(C)=O)N3C(C)=O)N2C(C)=O` the figure was inactive: 97%; with `O=[N+]([O-])c1cccc2n[nH]nc12`, inactive: 104%; with `O=[N+]([O-])c1ncn(CCn2ncnc2[N+](=O)[O-])n1`, inactive: 96%.

As for `Cc1cc(SC(NC=O)C(Cl)(Cl)Cl)ncn1` (stereo not given), the GTP binding activity was inactive: 100%.

As to `O=P(Nc1ccccn1)(c1cccc2ccccc12)c1cccc2ccccc12`, the GTP binding activity is inactive: 95%. In the case of `Cc1cc(SC(NC(=O)c2ccccc2)C(Cl)(Cl)Cl)nc(C(C)C)n1` (stereo not given) it was inactive: 99%. With `CCC(C)N(CC(C)C)C(=S)SC(NC(C)=O)C(Cl)(Cl)Cl` (stereo not given) the figure was inactive: 102%. As to `COP1(=S)c2c(C)nn(CCC#N)c2N=C(c2ccc(F)cc2)N1C` (stereo not given), the GTP binding activity was inactive: 98%.

Turning to `O=C(COc1ccccc1)OC1CN2CCC1CC2` (stereo not given), the GTP binding activity was inactive: 103%. `COc1ccc(N/C(=N/P(=O)(N2CCOCC2)N2CCOCC2)N2CCOCC2)cc1`: the GTP binding activity is inactive: 99%. For the compound `Cc1c2c(nc3ccccc13)SC(C(Cl)Cl)C2` (stereo not given), the GTP binding activity is inactive: 101%.

As to `Cc1cc(=O)[nH]c(N[N+](=O)[O-])n1`, the GTP binding activity is inactive: 97%. Turning to `COc1ccc2nc(NP(=O)(c3ccccc3)c3ccccc3)sc2c1`, the GTP binding activity is inactive: 98%. As to `ClCCSc1nnc(-c2cccnc2)o1`, the GTP binding activity was inactive: 104%. In the case of `O=[N+]([O-])c1cc([N+](=O)[O-])c(-c2ccn[nH]2)s1`, the GTP binding activity was inactive: 100%.

Take `CC(C)NC(=O)NP(=O)(Oc1ccccc1)Oc1ccccc1`: the GTP binding activity is inactive: 97%.

As to `CCN(CC)C(=S)SC(NC=O)C(Cl)(Cl)Cl` (stereo not given), the GTP binding activity is inactive: 98%. Consider `Cc1ccc2nc3c(c(C)c2c1)CC(C(Cl)Cl)S3` (stereo not given), for which the GTP binding activity was inactive: 97%. As to `CCOP1(=S)c2c(C)nn(CCC#N)c2N=C(c2ccc(F)cc2)N1C` (stereo not given), the GTP binding activity is inactive: 95%. With `O=[N+]([O-])c1ccc2c(c1)nnn2O`, the GTP binding activity is inactive: 102%.

As for `O=P(Nc1nccs1)(Oc1ccccc1)Oc1ccccc1`, the GTP binding activity is inactive: 98%. As for `O=P(Nc1nccs1)(c1ccccc1)c1nc2ccccc2s1` (stereo not given), the GTP binding activity is inactive: 97%. In the case of `CCOP1(=S)c2c(C)nn(CCC#N)c2N=C(c2ccccc2F)N1C` (stereo not given) it was inactive: 98%; in that of `Cc1ccc(NCCc2c([N+](=O)[O-])cc([N+](=O)[O-])cc2[N+](=O)[O-])cc1`, inactive: 98%. With `CCOP(=O)(Nc1cccc2ccccc12)OCC` the figure was inactive: 102%; with `COc1cc(C2NCCC3(OCCO3)C2(C)C)cc(OC)c1OC` (stereo not given), inactive: 95%.

Regarding `COc1cc(C(=O)NCC2(N3CCOCC3)CCCCC2)cc(Cl)c1OC(C)C`, the GTP binding activity was inactive: 96%.

As to `Cc1cccc(OCC(=O)OC2CN3CCC2CC3)c1` (stereo not given), the GTP binding activity was inactive: 104%. Consider `CC(C)/C=N\N=C(\N)N[N+](=O)[O-]`, for which the GTP binding activity is inactive: 95%.

With `O=P1(Nc2ccccn2)COc2ccccc2OC1`, the GTP binding activity is inactive: 101%. On to `Clc1n[nH]nc1-c1nn[nH][15n]1`, for which the GTP binding activity is inactive: 103%. In the case of `O=P1(Nc2ncccn2)COc2ccccc2OC1`, the GTP binding activity is inactive: 102%. As for `Cc1ccc(OCC(=O)OC2CN3CCC2CC3)cc1` (stereo not given), the GTP binding activity was inactive: 103%. Consider `O=P1(Nc2ccc(Br)cn2)COc2ccccc2OC1`, for which the GTP binding activity is inactive: 100%. In the case of `CC1CCC(C(C)C)C(OP(=O)(Nc2ccccn2)c2ccccc2)C1` (stereo not given) it was inactive: 95%; in that of `Cc1nn(-c2ccccc2)c2c1P(=O)(N1CCOCC1)N(C)C(c1ccccc1)=N2` (stereo not given), inactive: 102%. With `CN(C)C1(CNC(=O)c2ccc(S(C)(=O)=O)cc2)CCCCC1` the figure was inactive: 98%.
